In ChEMBL document CHEMBL1126706, “Structure-activity relationship of N-[2-(dimethylamino)-6-[3-(5-methyl-4-phenyl-1H-imidazol-1-yl)propoxy] phenyl]-N'-pentylurea and analogues. Novel potent inhibitors of acyl-CoA:cholesterol O-acyltransferase with antiatherosclerotic activity” (J Med Chem, 1993) one finds IC50 data, which are given here for one compound.

The target of this test is T1, Acyl-CoA:cholesterol acyltransferase (Oryctolagus cuniculus, UniProt Q95214).
T1 sequence (Q95214 whole entry): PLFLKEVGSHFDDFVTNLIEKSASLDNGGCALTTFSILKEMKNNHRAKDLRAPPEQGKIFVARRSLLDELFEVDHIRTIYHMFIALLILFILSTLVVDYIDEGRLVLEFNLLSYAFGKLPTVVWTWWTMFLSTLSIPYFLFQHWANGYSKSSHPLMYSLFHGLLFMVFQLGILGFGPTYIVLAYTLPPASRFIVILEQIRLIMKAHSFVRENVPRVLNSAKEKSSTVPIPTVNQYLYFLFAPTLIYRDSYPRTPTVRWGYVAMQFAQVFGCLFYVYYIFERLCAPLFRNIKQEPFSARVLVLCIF
Put plainly: Tested for inhibition against acyl coenzyme A:cholesterol acyltransferase from rabbit aorta homogenate. In kind it is tissue-based. The procedure, abridged: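 Arterial enzyme: aortae of cholesterol-fed NZW rabbits homogenized in 154 mM potassium phosphate pH 7.4 with 2.4 mg/mL BSA, 300g 5 min supernatant. Endogenous cholesterol plus 5 μM [1-14C]oleoyl-CoA; compound preincubated 3 min at 37 °C, enzyme (8 mg protein/mL) added, 5 min reaction, stopped with chloroform/methanol 2:1. IC50 from triplicate tubes per concentration.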

Usually IC50 stands for the concentration that gives 50% inhibition. The low end stands for greater potency, the high end for weaker potency. In the case of `CCCCCCCN(Cc1ccc(CC(C)(C)C)cc1)C(=O)Nc1ccc(F)cc1F` [CL-277082], it took 900 nM to reach half-maximal inhibition (IC50).
